# System: thalamic relay cells (thalamic bursting)
# Assay: Extracellular recordings of evoked neuronal activity in ex vivo thalamic brain slices
# Format: cell-based, rat
# Settings: 700 μM, FIG. 2
# Description: Spinothalamic tract transection. The spinothalamic tract is transected bilaterally at the level of the thoracic/lumbar border, thereby severing the ascending pathways conveying somatosensory, thermal and nociceptive information to the cortex via the thalamus. Male, adult Sprague-Dawley rats (ca. 200 gm) are anesthetized with pentobarbital and a T8 laminectomy is performed. The dura is opened with the tip of a 21 g. syringe needle to expose the spinal cord. The spinal cord is then lifted and rotated using a fine, sterile glass rod, and the ventral lateral pain pathways are severed electrolytically using a 1 MΩ sharpened tungsten needle and a 45 V pulse for 1 min. The lesion is packed with a small piece of sterile gelfoam. The overlying muscles and skin are closed and sutured, and the animal is allowed to recover on a 37° C. heating pad. Sham-operated controls undergo a laminectomy without dural penetration or spinal injury. This spinal transection procedure is a useful model of central pain syndrome where increased pain sensitivity and allodynia were observed. At various times after the lesion, standard behavioral tests were completed to assay the threshold for a stimulus to be perceived as painful, and allodynia was performed on awake, behaving animals. These procedures have been fully approved by the University of Maryland School of Medicine Animal Care and Use Committee. […]
smiles,measurement,setting,value
"CCC1(C)CC(=O)NC1=O (centres unmarked) [ethosuximide, 2-methyl-2-ethyl succinimide]",bursting activity in the lesioned slices,"bath perfusion, thalamic slices from animal with spinothalamic tract lesioned 19 days earlier",blocked the bursting activity
same,normal evoked responses in control slices,slices from sham control animal,without affecting the normal evoked responses

# Source: patent publication US20090143450A1, “METHOD FOR TREATING CENTRAL PAIN SYNDROM OR FOR INDUCING CENTRALLY GENERATED PAIN IN AN ANIMAL MODEL” (UNIVERSITY OF MARYLAND, BALTIMORE, priority 2005, published 2009)
